Target: 5-hydroxytryptamine receptor 2A (Rattus norvegicus, UniProt P14842)
Assay: Binding affinity against 5-hydroxytryptamine 2A receptor expressed NIH3T3 cells using [3H]ketanserin
Type: cell-based

The chains behind the UniProt entries cited, without tags or fusion partners.
UniProt P14842, whole entry: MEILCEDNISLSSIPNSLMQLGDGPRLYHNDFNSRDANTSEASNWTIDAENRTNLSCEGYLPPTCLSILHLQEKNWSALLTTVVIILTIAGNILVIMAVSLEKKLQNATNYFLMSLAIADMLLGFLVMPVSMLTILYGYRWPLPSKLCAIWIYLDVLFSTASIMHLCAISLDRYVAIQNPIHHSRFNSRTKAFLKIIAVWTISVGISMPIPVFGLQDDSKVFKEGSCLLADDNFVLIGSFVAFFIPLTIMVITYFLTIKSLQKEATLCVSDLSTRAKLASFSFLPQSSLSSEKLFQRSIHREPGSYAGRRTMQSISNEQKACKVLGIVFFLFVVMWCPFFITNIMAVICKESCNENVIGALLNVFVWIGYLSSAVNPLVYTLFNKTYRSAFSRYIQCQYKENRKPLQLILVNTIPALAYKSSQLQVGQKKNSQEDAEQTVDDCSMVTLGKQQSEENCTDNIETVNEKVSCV

Structure (SMILES)	Ki [µM]
NCC1c2ccccc2-c2ccccc21	20.8
NCC1c2ccccc2C=Cc2ccccc21	4.12
